Laboratory results reported in US20090111820A1, “FUSED PYRROLIDINE 1,2,4-TRIAZOLE DERIVATIVES AS MODULATORS OF MGLUR5” (priority 2007, published 2009).

Protein sequences, listed by entry. Tags and fused reporters are not part of them. Residues count along the entry.
UniProt P41594, 21-942 isoform 3 limits assumed: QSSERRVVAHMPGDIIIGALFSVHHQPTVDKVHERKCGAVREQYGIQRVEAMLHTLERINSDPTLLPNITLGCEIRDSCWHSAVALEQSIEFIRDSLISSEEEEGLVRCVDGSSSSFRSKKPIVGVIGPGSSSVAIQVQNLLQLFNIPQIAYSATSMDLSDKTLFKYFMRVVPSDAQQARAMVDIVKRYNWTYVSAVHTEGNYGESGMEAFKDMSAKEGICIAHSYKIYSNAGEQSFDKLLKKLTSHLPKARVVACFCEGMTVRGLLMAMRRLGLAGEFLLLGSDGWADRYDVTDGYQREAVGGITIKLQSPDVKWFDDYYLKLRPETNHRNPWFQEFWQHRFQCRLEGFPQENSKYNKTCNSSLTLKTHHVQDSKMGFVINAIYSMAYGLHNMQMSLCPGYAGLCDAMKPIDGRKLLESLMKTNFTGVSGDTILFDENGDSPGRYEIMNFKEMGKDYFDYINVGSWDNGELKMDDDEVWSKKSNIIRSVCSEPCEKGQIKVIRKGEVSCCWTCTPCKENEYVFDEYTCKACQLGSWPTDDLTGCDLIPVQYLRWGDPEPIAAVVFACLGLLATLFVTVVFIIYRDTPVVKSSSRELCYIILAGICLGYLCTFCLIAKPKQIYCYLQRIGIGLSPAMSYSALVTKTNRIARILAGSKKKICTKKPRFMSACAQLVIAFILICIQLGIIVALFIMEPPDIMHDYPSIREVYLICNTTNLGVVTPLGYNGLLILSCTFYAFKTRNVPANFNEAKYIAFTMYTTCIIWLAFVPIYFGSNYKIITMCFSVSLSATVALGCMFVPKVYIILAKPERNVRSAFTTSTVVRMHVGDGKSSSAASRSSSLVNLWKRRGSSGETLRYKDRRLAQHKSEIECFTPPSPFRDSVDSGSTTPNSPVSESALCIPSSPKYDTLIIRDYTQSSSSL

Biological target: human mGluR5d (Homo sapiens, UniProt P41594)
Experiment: FLIPR assay, mGluR5 antagonism (intracellular calcium mobilization)
Conditions: read-out: FLIPR hmGluR5d; cells expressing human mGluR5d; fluo-3 calcium signal
Text: Functional Assessment of mGluR5 Antagonism in Cell Lines Expressing mGluR5D
The properties of the compounds of the invention can be analyzed using standard assays for pharmacological activity. Examples of glutamate receptor assays are well known in the art as described in for example Aramori et al., Neuron 8:757 (1992), Tanabe et al., Neuron 8:169 (1992), Miller et al., J. Neuroscience 15: 6103 (1995), Balazs, et al., J. Neurochemistry 69:151 (1997). The methodology described in these publications is incorporated herein by reference. […]
Cells expressing human mGluR5d as described in WO97/05252 cultured in a mixture of high glucose DMEM with Glutamax (31966-021) (500 mL), 10% dialyzed fetal bovine serum (Hyclone #SH30079.03) (56 mL), 200 μg/mL Hygromycin B (Invitrogen 45-0430, 50 mg/mL)(2.2 mL), 200 μg/mL Zeocin (Invitrogen #R250-01; 100 mg/mL)(1.1 mL) are seeded at a density of 100,000 cells per well on collagen coated clear bottom 96-well plates with black sides and cells were allowed to adhere over night before experiments. […] The fluorescence signal is sampled 50 times at 1-second intervals followed by 3 samples at 5-second intervals immediately after each of the two additions. Responses are measured as the difference between the peak heights of the response to agonist, less the background fluorescence within the sample period. […]

Compound `Cn1c(-c2cc[nH]c(=O)c2)nnc1N1[C@@H](c2cc(-c3cccc(Cl)c3)on2)C[C@H]2C[C@H]21` has an IC50 of 33 nM.
